{
  "sequences": {"note": "Chains of the proteins cited; added tags and fusions are not shown. Lines headed by an entry give the natural chain unless they say otherwise; changes in a name come on top.", "UniProt P35372, whole entry, looked up": "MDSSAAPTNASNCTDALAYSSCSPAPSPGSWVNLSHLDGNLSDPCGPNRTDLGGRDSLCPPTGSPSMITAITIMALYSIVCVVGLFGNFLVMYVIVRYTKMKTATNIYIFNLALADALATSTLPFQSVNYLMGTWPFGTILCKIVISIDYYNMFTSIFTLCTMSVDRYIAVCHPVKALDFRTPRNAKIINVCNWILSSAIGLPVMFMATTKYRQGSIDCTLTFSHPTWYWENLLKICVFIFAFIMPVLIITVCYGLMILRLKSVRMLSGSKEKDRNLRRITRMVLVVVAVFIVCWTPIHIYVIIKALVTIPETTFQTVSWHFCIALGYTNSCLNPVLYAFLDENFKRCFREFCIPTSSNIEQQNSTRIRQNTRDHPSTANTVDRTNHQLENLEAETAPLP", "UniProt P41146": "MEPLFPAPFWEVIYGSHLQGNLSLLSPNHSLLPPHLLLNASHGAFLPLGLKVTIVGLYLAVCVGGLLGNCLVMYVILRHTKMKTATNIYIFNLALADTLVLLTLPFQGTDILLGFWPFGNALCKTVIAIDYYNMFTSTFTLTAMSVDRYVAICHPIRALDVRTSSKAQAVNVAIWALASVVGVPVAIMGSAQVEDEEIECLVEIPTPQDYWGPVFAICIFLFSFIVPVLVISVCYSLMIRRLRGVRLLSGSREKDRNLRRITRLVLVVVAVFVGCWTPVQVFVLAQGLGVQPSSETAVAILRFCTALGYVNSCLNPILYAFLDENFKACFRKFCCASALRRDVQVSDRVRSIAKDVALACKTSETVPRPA"},
  "source": "ChEMBL document CHEMBL1147615",
  "about": "“Design and synthesis of novel small molecule N/OFQ receptor antagonists” (2004)",
  "settings_in_all_cases": "filed as antagonist",
  "key": {"[1]": {"target": "Mu-type opioid receptor (Homo sapiens) (UniProt P35372)", "assay": "Activity was determined for the compound against the Mu opioid receptor by GTPgammaS functional assay using recombinant HEK293 cells."}, "[2]": {"target": "Nociceptin receptor (Homo sapiens) (UniProt P41146)", "assay": "Activity on Nociceptin/orphanin FQ (N/OFQ) receptor was determined by GTPgammaS functional assay using recombinant HEK293 cells."}, "[3]": {"target": "Nociceptin receptor (Homo sapiens) (UniProt P41146)", "assay": "Activity on Nociceptin/orphanin FQ (N/OFQ) receptor was determined by GTPgammaS functional assay using recombinant HEK293 cells; PA: Partial antagonist"}, "[4]": {"target": "Mu-type opioid receptor (Homo sapiens) (UniProt P35372)", "assay": "Activity was determined for the compound against the Mu opioid receptor by GTPgammaS functional assay using recombinant HEK293 cells; PA: Partial antagonist"}},
  "data": [
    {"smiles": "CCN1C(=O)N(C2CCN(C3CCC(C(C)C)CC3)CC2)[C@@H]2CCCC[C@H]21", "note": "(stereo partly specified)", "values": [
      {"measurement": "Activity", "setting": "[1]", "value": "Antagonist"},
      {"measurement": "Activity", "setting": "[2]", "value": "Antagonist"}
    ]},
    {"smiles": "CCN1C(=O)N(C2CCN(CC3CCCCCCC3)CC2)[C@@H]2CCCC[C@H]21", "values": [
      {"measurement": "Activity", "setting": "[1]", "value": "Antagonist"},
      {"measurement": "Activity", "setting": "[2]", "value": "Antagonist"}
    ]},
    {"smiles": "CC(C)CCC(C)N1CCC(N2C(=O)N[C@@H]3CCCC[C@H]32)CC1", "note": "(stereo partly specified)", "values": [
      {"measurement": "Activity", "setting": "[3]", "value": "Partial antagonist"},
      {"measurement": "Activity", "setting": "[1]", "value": "Antagonist"}
    ]},
    {"smiles": "CC(C)C1CCC(N2CCC(N3C(=O)N[C@@H]4CCCC[C@H]43)CC2)CC1", "note": "(stereo partly specified)", "values": [
      {"measurement": "Activity", "setting": "[3]", "value": "Partial antagonist"},
      {"measurement": "Activity", "setting": "[1]", "value": "Antagonist"}
    ]},
    {"smiles": "O=C1N[C@@H]2CCCC[C@H]2N1C1CCN(CC2CCCCCCC2)CC1", "values": [
      {"measurement": "Activity", "setting": "[1]", "value": "Antagonist"},
      {"measurement": "Activity", "setting": "[2]", "value": "Antagonist"}
    ]},
    {"smiles": "CCN1C(=O)N(C2CCN(C3CCC4CCCCC4C3)CC2)[C@@H]2CCCC[C@H]21", "note": "(stereo partly specified)", "values": [
      {"measurement": "Activity", "setting": "[1]", "value": "Antagonist"},
      {"measurement": "Activity", "setting": "[2]", "value": "Antagonist"}
    ]},
    {"smiles": "CCN1C(=O)N(C2CCN(Cc3ccc4ccccc4c3)CC2)[C@@H]2CCCC[C@H]21", "values": [
      {"measurement": "Activity", "setting": "[2]", "value": "Antagonist"}
    ]},
    {"smiles": "O=C1N[C@@H]2CCCC[C@H]2N1C1CCN(C2CCC3CCCCC3C2)CC1", "note": "(stereo partly specified)", "values": [
      {"measurement": "Activity", "setting": "[3]", "value": "Partial antagonist"},
      {"measurement": "Activity", "setting": "[1]", "value": "Antagonist"}
    ]},
    {"smiles": "CCCC1CCC(N2CCC(N3C(=O)N[C@@H]4CCCC[C@H]43)CC2)CC1", "note": "(stereo partly specified)", "values": [
      {"measurement": "Activity", "setting": "[3]", "value": "Partial antagonist"},
      {"measurement": "Activity", "setting": "[1]", "value": "Antagonist"}
    ]},
    {"smiles": "CCN1C(=O)N(C2CCN(Cc3ccccc3)CC2)[C@@H]2CCCC[C@H]21", "values": [
      {"measurement": "Activity", "setting": "[4]", "value": "Partial antagonist"},
      {"measurement": "Activity", "setting": "[2]", "value": "Antagonist"}
    ]},
    {"smiles": "O=C1N[C@@H]2CCCC[C@H]2N1C1CCN(C2CCCCCCC2)CC1", "values": [
      {"measurement": "Activity", "setting": "[1]", "value": "Antagonist"},
      {"measurement": "Activity", "setting": "[2]", "value": "Antagonist"}
    ]},
    {"smiles": "O=C1N[C@@H]2CCCC[C@H]2N1C1CCN(Cc2ccccc2)CC1", "values": [
      {"measurement": "Activity", "setting": "[2]", "value": "Antagonist"}
    ]},
    {"smiles": "CCN1C(=O)N(C2CCN(C3CCCCCCC3)CC2)[C@@H]2CCCC[C@H]21", "values": [
      {"measurement": "Activity", "setting": "[1]", "value": "Antagonist"},
      {"measurement": "Activity", "setting": "[2]", "value": "Antagonist"}
    ]},
    {"smiles": "CCN1C(=O)N(C2CCN(C(C)CCC(C)C)CC2)[C@@H]2CCCC[C@H]21", "note": "(stereo partly specified)", "values": [
      {"measurement": "Activity", "setting": "[4]", "value": "Partial antagonist"},
      {"measurement": "Activity", "setting": "[2]", "value": "Antagonist"}
    ]}
  ]
}
